PMC5995306

Assays:
Tet-SL-YFP = Tet-SL-YFP (UniProt P04637); test: native MS
YFP-SL-Tet = YFP-SL-Tet (UniProt P04637); test: native MS

Substance	stoichiometry N (Tet-SL-YFP)	stoichiometry N (YFP-SL-Tet)
Tet-SL-YFP (from UniProt P04637 325-356)	4	–
YFP-SL-Tet (from UniProt P04637 325-356)	–	4
